Assay results as given in patent publication US20240122930A1, “INTEGRIN INHIBITORS AND USES THEREOF IN COMBINATION WITH OTHER AGENTS” (Pliant Therapeutics, Inc., priority 2022, published 2024).

Test system: Type I Collagen gene Col1a1 expression
Assay: Precision cut lung slices, acute bleomycin exposure, Col1a1 expression
Assay type: cell-based, mice (C57BL/6)

SMILES: Cc1cc(C)n(-c2cccc([C@H](CC(=O)O)CN3CC[C@H](CCc4ccc5c(n4)NCCC5)C3)c2)n1 [first pan-αV small molecule inhibitor, (3S)-3-[3-(3,5-dimethyl-1H-pyrazol-1-yl)phenyl]-4-{(3S)-3-[2-(5,6,7,8-tetrahydro-1,8-naphthyridin-2-yl)ethyl]-1-pyrrolidinyl}butanoic acid]
- Type I Collagen gene Col1a1 expression, normalized to DMSO control slices: decreased Type I Collagen gene Col1a1 expression comparably
